Values of other authors as cited in patent US20130274692A1, “SUBCONJUCTIVAL IMPLANT FOR POSTERIOR SEGMENT DRUG DELIVERY” (priority 2010, published 2013).
Where two headings read alike, the source gives them in different places.

Conditions: in water, 20 C, measured value of Molokhia et al, cited from earlier work

Q: With bovine serum albumin [BSA] as the substance, how does the “Diff Coeff” value read?
A: The value was 6.1E−07 cm^2/s.

Q: And the “Diff Coeff” value (listed as bovine serum albumin)?
A: Its value is 6.1 e-7 cm^2/s.
